Reference: US7354928B2, “Small molecule inhibitors targeted at Bcl-2” (The Regents of the University of Michigan, priority 2001, dated 2008)

Amino acid sequences for entries named in this document (tags omitted). Chains listed by the source or under a name are the forms on record and can include a tag or linker. Residues count along the entry.
UniProt Q07817, whole entry: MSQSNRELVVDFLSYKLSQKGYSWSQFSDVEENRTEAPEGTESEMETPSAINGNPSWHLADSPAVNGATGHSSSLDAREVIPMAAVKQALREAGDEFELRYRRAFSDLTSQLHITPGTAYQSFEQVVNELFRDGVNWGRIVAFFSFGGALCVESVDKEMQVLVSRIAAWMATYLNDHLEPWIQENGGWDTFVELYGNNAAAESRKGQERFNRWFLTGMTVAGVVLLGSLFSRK
UniProt Q07817, 1-209 with tags or gaps DEL45-84 limits assumed: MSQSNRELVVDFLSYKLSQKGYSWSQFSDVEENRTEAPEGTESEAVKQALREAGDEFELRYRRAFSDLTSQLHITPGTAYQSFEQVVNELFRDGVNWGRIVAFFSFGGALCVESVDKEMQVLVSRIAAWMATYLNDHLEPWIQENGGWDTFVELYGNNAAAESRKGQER

Tests used:
[1] = molecular target: Bcl-XL (Homo sapiens, UniProt Q07817); assay: FP binding assay on Bcl-XL; conditions: read-out: IC50, binding to Bcl-XL
[2] = system: HL-60 cells; assay: Cell viability, trypan blue exclusion, HL-60; conditions: read-out: IC50, inhibition of cell viability; HL-60, trypan blue exclusion, 24 hours
[3] = system: T47D cells; assay: Cell viability, trypan blue exclusion, T47D; format: cell-based, human; conditions: 25 μM
[4] = system: MDA-453 cells; assay: Cell viability, trypan blue exclusion, MDA-453; format: cell-based, human; conditions: MDA-453, 25 μM
[5] = system: HL-60 cells; assay: Cell growth MTT assay, HL-60; conditions: read-out: IC50, inhibition of cell growth; HL-60, MTT assay, cells treated for 4 days
[6] = molecular target: Bcl-XL (Homo sapiens, UniProt Q07817, DEL45-84); assay: NMR HSQC binding experiment with 15N labeled Bcl-XL; conditions: 300 μM Bcl-XL, 300 μM compound, pH 7.3, 25° C.

COc1ccc2c(c1)CCc1cc(OC)ccc1[N+]([O-])=[N+]2[O-] [Compound 6a, 2,9-Dimethoxy-11,12-dihydrodibenzo [c,g] [1,2] diazocine-5,6-dioxide]
IC50 [1]: 7 µM
IC50 [2]: 10 µM
effect on cell viability [3]: minimal activity
effect on cell viability [4]: no effect
IC50 [5]: 4 µM
binding to Bcl-XL by HSQC chemical shift changes [6]: binds to the BH3 binding site in Bcl-XL and doesn't unfold the protein
